This test addresses Mitogen-activated protein kinase 8 (Homo sapiens, UniProt P45983). The test is described as follows: Competitive inhibition of JNK1 using ATF2 substrate by Lineweaver-Burk analysis.

Chains of the proteins cited; added tags and fusions are not shown. Lines headed by an entry give the natural chain unless they say otherwise; changes in a name come on top.
UniProt P45983: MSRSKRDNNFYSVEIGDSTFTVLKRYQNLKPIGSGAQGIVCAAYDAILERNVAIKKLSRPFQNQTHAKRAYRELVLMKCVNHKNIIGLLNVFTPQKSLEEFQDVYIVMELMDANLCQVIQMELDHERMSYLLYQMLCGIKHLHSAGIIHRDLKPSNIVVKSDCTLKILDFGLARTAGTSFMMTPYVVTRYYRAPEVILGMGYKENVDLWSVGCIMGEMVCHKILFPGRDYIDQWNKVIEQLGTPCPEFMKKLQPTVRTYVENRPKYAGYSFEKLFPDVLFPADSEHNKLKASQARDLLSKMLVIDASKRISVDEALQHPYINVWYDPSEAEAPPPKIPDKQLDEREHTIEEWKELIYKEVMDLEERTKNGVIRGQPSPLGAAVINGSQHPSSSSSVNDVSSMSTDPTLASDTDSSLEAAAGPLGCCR

Ki data for 1 molecule are collected here from ChEMBL document CHEMBL1821566, “Design and characterization of a potent and selective dual ATP- and substrate-competitive subnanomolar bidentate c-Jun N-terminal kinase (JNK) inhibitor” (J Med Chem, 2011).

Molecules are shown by their SMILES.

The Ki is the equilibrium dissociation constant of an inhibitor or competing ligand from its target. Low readings indicate tighter binding, high ones weaker binding. In turn, `CC(C)C[C@@H](NC(=O)CNC(=O)CNC(=O)CCCNC(=O)c1ccc(-c2n[nH]c3ccccc23)cc1)C(=O)N[C@H](CC(N)=O)C(=O)N[C@H](CC(C)C)C(=O)N[C@@H](C(=O)N[C@@H](C(=O)N1CCC[C@@H]1C(=O)N[C@H](CCCNC(=N)N)C(=O)NCC(=O)NCC(=O)N[C@H](CCCNC(=N)N)C(=O)N[C@H](CCCNC(=N)N)C(=O)N[C@H](CCCNC(=N)N)C(=O)N[C@H](CCC(N)=O)C(=O)N[C@H](CCCNC(=N)N)C(=O)N[C@H](CCCNC(=N)N)C(=O)N[C@H](CCCCN)C(=O)N[C@H](CCCCN)C(=O)N[C@H](CCCNC(=N)N)C(=O)NCC(N)=O)[C@H](C)O)[C@H](C)O` had a Ki of 1.5 nM.
